The values that follow come from patent US6686370B2, “Triazospiro compounds having nociceptin receptor affinity” (Euro-Celtique S.A., priority 1999, dated 2004).

Sequences of proteins named here, by UniProt entry; tags and fusion partners are left off. A change or cut given only in a name is not applied to a line headed by its entry.
UniProt P35372: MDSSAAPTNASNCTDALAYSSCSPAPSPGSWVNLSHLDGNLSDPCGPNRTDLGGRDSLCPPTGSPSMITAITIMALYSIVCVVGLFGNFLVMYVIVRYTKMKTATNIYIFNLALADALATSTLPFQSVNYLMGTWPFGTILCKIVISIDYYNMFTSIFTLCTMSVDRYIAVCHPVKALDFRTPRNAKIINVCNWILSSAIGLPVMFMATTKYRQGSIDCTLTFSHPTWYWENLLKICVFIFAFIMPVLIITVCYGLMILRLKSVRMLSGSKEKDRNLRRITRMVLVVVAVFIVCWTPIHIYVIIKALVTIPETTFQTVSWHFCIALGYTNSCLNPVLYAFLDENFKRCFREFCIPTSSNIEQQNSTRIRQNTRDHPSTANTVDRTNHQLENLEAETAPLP
UniProt P41145: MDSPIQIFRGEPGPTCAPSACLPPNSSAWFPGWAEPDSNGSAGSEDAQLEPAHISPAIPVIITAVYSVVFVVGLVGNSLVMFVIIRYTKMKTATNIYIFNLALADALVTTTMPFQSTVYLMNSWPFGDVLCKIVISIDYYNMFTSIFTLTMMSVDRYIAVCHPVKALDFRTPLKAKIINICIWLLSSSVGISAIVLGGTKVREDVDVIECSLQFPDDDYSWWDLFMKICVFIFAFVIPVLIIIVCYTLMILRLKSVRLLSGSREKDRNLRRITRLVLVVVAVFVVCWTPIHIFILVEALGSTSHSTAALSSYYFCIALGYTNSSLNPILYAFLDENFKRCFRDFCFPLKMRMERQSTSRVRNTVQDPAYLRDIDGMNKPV
UniProt P41143: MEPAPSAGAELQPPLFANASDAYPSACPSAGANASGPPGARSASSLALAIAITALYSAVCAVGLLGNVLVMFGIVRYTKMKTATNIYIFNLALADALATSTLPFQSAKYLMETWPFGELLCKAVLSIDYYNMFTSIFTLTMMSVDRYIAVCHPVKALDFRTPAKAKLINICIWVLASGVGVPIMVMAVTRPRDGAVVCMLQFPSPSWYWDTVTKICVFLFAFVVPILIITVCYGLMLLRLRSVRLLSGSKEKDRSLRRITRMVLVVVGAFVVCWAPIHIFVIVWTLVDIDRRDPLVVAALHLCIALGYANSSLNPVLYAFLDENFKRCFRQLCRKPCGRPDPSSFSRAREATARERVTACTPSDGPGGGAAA
UniProt P41146: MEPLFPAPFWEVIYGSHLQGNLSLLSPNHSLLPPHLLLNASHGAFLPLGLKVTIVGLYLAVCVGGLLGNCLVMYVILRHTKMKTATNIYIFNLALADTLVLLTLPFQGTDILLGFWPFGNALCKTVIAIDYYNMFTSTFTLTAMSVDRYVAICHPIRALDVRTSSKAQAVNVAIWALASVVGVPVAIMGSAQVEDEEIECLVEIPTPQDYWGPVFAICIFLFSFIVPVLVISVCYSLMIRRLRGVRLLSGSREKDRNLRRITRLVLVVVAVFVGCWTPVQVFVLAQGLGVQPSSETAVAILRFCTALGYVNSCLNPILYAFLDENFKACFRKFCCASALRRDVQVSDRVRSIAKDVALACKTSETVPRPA

One assay has as its target Mu opioid receptor (Homo sapiens, UniProt P35372). Kind of assay: [35S]GTPγS binding assay, affinity at the μ receptor. As to conditions: read-out: calc Ki μ; mu opioid receptor membranes. Format: biochemical.
In another assay the target is kappa opioid receptor (Homo sapiens, UniProt P41145). Kind of assay: [35S]GTPγS binding assay, affinity at the k receptor. Format: biochemical. As to conditions: read-out: calc Ki k; kappa opioid receptor membranes.
In assay [1] the target is delta opioid receptor (δ2) (Homo sapiens, UniProt P41143). Nature of the assay: [35S]GTPγS binding assay, affinity at the δ receptor. Format: biochemical. As to conditions: read-out: calc Ki δ2; delta opioid receptor membranes.
For assay [2], the target named is human opioid receptor-like receptor (ORL-1) (Homo sapiens, UniProt P41146). Nature of the assay: Functional [35S]GTPγS binding assay, nociceptin affinity at the ORL1 receptor. As to conditions: read-out: Nociceptin Affinity calc Ki; membranes from recombinant HEK-293 cells expressing human ORL-1.

Regarding “8-[3,3-Bis(phenyl)-4-oxo-butyl]-1-phenyl-1-phenyl-1,3,8-triazospiro[4.5]decan-4-one”, the Ki (in general, a measure of affinity in units of concentration, obtained from inhibition or displacement) on Mu opioid receptor was 0.044 nM; on kappa opioid receptor, 23 nM; in assay [1], 650 nM; in assay [2], 69.8 nM.

With “8-benzodioxane-1-phenyl-1,3,8-triazospiro[4.5]decan-4-one”, the Ki on Mu opioid receptor was 2.9 nM; on kappa opioid receptor it was 2400 nM; in assay [2], 57 nM.

As for “8-benzyloxybenzyl-1-phenyl-1,3,8-triazospiro[4.5]decan-4-one”, the Ki at Mu opioid receptor is 296 nM; on kappa opioid receptor, 1450 nM; in assay [1] it was 7620 nM; in assay [2] it was 323 nM.

On to “8-benzylpiperadine-1-phenyl-1,3,8-triazospiro[4.5]decan-4-one”, for which the Ki is 315 nM at Mu opioid receptor, greater than 10000 nM at kappa opioid receptor, greater than 10000 nM in assay [1] and 1960 nM in assay [2].

Regarding “8-dacalin-1-phenyl-1,3,8-triazospiro[4.5]decan-4-one”, the Ki on Mu opioid receptor was 9.3 nM; on kappa opioid receptor, 190 nM; in assay [1] it was 6910 nM; in assay [2], 3.6 nM.

With “8-fluorophenyloxypropyl-1-phenyl-1,3,8-triazospiro[4.5]decan-4-one”, the Ki in assay [2] was 1570 nM.

“8-phenyl-benzyl-1-phenyl-1,3,8-triazospiro[4.5]decan-4-one”: the Ki on Mu opioid receptor is 49 nM; on kappa opioid receptor, 690 nM; in assay [1] it was 7520 nM; in assay [2], 1140 nM.

“8-phenyl-ethyl-1-phenyl-1,3,8-triazospiro[4.5]decan-4-one”: the Ki was 98 nM on Mu opioid receptor, 1300 nM on kappa opioid receptor, greater than 10000 nM in assay [1] and 288 nM in assay [2].

As to “8-quinoline-methyl-1-phenyl-1,3,8-triazospiro[4.5]decan-4-one”, the Ki on Mu opioid receptor was 91 nM; on kappa opioid receptor, 3210 nM; in assay [1] it was greater than 10000 nM; in assay [2], 465 nM.

Regarding “8[3-oxo-5-phenyl-1,2 cyclohexene]-1-phenyl-1,3,8-triazospiro[4.5]decan-4-one”, the Ki at Mu opioid receptor was 672 nM; at kappa opioid receptor, greater than 10000 nM; in assay [1], greater than 10000 nM; in assay [2], 861 nM.
